In US20240191187A1, “MEDIA AND METHODS FOR GROWING MAMMARY ORGANOIDS” (STEMCELL TECHNOLOGIES CANADA INC., priority 2021, published 2024):

Key:
[1] = tested on: human mammary epithelial cells; assay: Total cell count among formed human mammary organoids; type: cell-based; conditions: vs condition where BMP signaling not modulated or inhibited
Procedure: Fragments of human mammary epithelial cells were isolated from tissue samples obtained from academic collaborators, as follows. Resected tissue samples were minced in a petri dish using a scalpel to cut in a cross-hatched pattern. The minced tissue samples were placed in a dissociation flask in standard culture medium supplemented with BSA, insulin, collagenase and hyaluronidase. The flask was gently shaken overnight on an orbital shaker placed in a 37° C. tissue incubator. The following morning the floating layer of fat was removed by pipette, and the remaining liquid was transferred to a tube and briefly centrifuged at low rpm (˜80 g for 30 seconds). The pellet (A pellet) was set aside and the supernatant was further centrifuged for an incrementally longer period of time and at an incrementally higher rpm (˜200 g for 4 minutes). […]
The effects of modulating signaling through BMP were analyzed across multiple experiments in terms of total cell count among formed organoids (FIG. 9A) and the lineage balance of the cells among formed organoids (FIG. 9B). […]
The effects of modulating signaling through an ERBB receptor family member were analyzed across multiple experiments in terms of total cell count among formed organoids (FIG. 13A) and the lineage balance of the cells among formed organoids (FIG. 13B). […]

[2] = tested on: human mammary epithelial cells; assay: Human mammary organoid cell lineage balance by flow cytometry; conditions: just prior to first passage; ~50 ng/mL BMP2 or BMP4; ~25-200 ng/mL NOGGIN or ~10-100 nM LDN193189

B1: BMP2: BMP signaling activator (protein, UniProt P12643 283-396, looked up)
Bone morphogenetic protein 2: QAKHKQRKRLKSSCKRHPLYVDFSDVGWNDWIVAPPGYHAFYCHGECPFPLADHLNSTNHAIVQTLVNSVNSKIPKACCVPTELSAISMLYLDENEKVVLKNYQDMVVEGCGCR
total cell count among formed organoids, BMP signaling modulators [1]: a marked net loss of total cells
cell lineage balance, BMP signaling modulators [2]: significant increase in basal cells and reduction in luminal cells
